We go through 3 molecules from EP3102204B1 (The University Of Mississippi, priority 2014, dated 2015).

By UniProt entry, the sequences of proteins in these tests, tags left out.
UniProt Q9R0C9, whole entry: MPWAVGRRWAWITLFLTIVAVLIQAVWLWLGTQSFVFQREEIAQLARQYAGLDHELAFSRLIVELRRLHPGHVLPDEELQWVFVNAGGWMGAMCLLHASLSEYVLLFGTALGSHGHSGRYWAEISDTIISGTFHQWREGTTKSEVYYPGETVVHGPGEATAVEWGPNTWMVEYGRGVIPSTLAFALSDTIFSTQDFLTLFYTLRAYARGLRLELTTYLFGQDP

Usually Ki stands for the dissociation constant of the complex between target and ligand, obtained from inhibition or displacement.

Structures are written as SMILES.

One assay addresses T1, σ-2 (Rattus norvegicus, UniProt Q5U3Y7).
T1 construct: from tissue; host or cells: rat brain homogenate (membrane protein)
T1 sequence (Q5U3Y7 1-176): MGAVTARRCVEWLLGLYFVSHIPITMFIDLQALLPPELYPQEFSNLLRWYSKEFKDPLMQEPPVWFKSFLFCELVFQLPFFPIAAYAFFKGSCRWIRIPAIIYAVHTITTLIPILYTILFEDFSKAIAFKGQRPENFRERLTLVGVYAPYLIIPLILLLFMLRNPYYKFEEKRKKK
In words: σ receptor assay: σ-2 binding with [3H]DTG plus (+)-pentazocine. The note with it: σ-2 over σ-1.

For a further assay, the target named is σ-1 (Rattus norvegicus, UniProt Q9R0C9). Kind of assay: σ receptor assay: σ-1 binding with [3H](+)-pentazocine. The following applies: rat brain homogenates; CM table.

Consider `CC(=O)c1ccc2c(c1)oc(=O)n2CCCCN1CCN(C2CCCCC2)CC1` [CM 142], for which, on σ-2, the “preference (selectivity) for the σ-2 subtype” value came to 7 fold.
Still for that read-out and setting: the figure for `O=c1oc2ccccc2n1CCCCN1CCN(c2ccc(F)cc2)CC1` [CM 170] is 11 fold.
On σ-1, `Cn1c(=O)n(CCCCN2CCN(C3CCCCC3)CC2)c2ccccc21` [CM 396] yielded an inhibition constant Ki of 50.2 ± 7.59 nM.
